Experimental data reported in patent publication US9637493B2, “Substituted pyrrolopyrimidines as HDM2 inhibitors” (Merck Sharp & Dohme Corp., priority 2012, dated 2017).

The chains behind the UniProt entries cited, without tags or fusion partners. Residues count along the entry.
UniProt Q00987, 17-125: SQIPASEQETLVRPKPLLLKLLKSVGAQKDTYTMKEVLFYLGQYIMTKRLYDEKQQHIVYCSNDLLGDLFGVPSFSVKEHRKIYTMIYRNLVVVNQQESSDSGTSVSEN

Molecular target: HDM2 (Homo sapiens (Human), UniProt Q00987)
Test: HDM2 FRET assay (inhibition of p53 peptide binding to HDM2)
Settings: truncated HDM2 residues 17 to 125, 0.5 nM; FITC labeled 8-mer peptide 3 nM; two hour incubation at room temperature
Procedure: Methods: An HDM2 FRET assay was developed to assess the compounds' inhibitory activity towards binding of p53 protein. […] (containing p53 binding surface, Science (1994) 265, 346-355), with N-terminal His and Thioredoxin tag was generated in pET32a expression vector and expressed in E. coli strain BL21(DE3)Rosetta. Protein was purified using Ni-affinity chromatography, followed by size exclusion chromatography using Superdex 75 26/60 column. […] After two hour incubation at room temperature in a humidified chamber plates were read on EnVision plate reader with the following settings: excitation: UV, […], two emission filters: 520 nm and 495 nm respectively. […] IC50 DETERMINATIONS: Dose-response curves were plotted from the inhibition data, from 10 point serial dilutions of inhibitory compounds. Concentration of compound was plotted against em520/Cem495 ratio signal. To generate IC50 values, the dose-response curves were fitted to a standard sigmoidal curve and IC50 values were derived by nonlinear regression analysis.

| Compound | IC50 [nM] |
| --- | --- |
| CC(F)(c1ncccc1F)c1cc2nc(C(=O)O)nc(-c3cncc(Cl)c3)c2n1C[C@H]1CC[C@H](C)CC1 (single isomer, unassigned) [Example 8.3, 4-(5-chloropyridin-3-yl)-6-[(1R or S)-1-fluoro-1-(3-fluoropyridin-2-yl)ethyl]-5-[(trans-4-methylcyclohexyl)methyl]-5H-pyrrolo[3,2-d]pyrimidine-2-carboxylic acid] | 8 |
| CC(F)(c1ncccc1F)c1cc2nc(C(=O)O)nc(-c3cncc(Cl)c3)c2n1C[C@H]1CC[C@H](C)CC1 (single isomer, unassigned) [Example 8.4, 4-(5-chloropyridin-3-yl)-6-[(1S or R)-1-fluoro-1-(3-fluoropyridin-2-yl)ethyl]-5-[(trans-4-methylcyclohexyl)methyl]-5H-pyrrolo[3,2-d]pyrimidine-2-carboxylic acid] | < 1 |
